The values below come from US20090104171A1, “Metabolic Enhancement Therapy” (priority 2007, published 2009).

The data set in a line: Case study Example 4: person with acute anxiety disorder and depression. The settings on record: 2 years of treatment.

Consider `Cc1nc2n(c(=O)c1CCN1CCC(c3noc4cc(F)ccc34)CC1)CCCC2` [Risperdol], for which the side effects result was “negative side effects”.
